This note sets out measurements from ChEMBL document CHEMBL4017496 (J Med Chem, 2017).

Sequences of proteins named here, by UniProt entry; tags and fusion partners are left off.
UniProt P30542, whole entry: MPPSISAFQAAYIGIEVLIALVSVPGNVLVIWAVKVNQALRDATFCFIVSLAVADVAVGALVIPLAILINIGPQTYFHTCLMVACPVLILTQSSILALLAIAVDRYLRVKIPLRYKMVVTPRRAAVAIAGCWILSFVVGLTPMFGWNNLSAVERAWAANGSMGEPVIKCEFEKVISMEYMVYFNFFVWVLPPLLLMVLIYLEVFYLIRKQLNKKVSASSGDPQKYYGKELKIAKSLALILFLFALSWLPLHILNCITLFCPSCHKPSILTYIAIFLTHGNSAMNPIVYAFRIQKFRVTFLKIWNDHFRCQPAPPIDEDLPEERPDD

Each structure is given as a SMILES string.

Assay [1] deals with T1, Peroxisome proliferator-activated receptor delta (Homo sapiens, UniProt Q03181).
T1 sequence (Q03181 whole entry): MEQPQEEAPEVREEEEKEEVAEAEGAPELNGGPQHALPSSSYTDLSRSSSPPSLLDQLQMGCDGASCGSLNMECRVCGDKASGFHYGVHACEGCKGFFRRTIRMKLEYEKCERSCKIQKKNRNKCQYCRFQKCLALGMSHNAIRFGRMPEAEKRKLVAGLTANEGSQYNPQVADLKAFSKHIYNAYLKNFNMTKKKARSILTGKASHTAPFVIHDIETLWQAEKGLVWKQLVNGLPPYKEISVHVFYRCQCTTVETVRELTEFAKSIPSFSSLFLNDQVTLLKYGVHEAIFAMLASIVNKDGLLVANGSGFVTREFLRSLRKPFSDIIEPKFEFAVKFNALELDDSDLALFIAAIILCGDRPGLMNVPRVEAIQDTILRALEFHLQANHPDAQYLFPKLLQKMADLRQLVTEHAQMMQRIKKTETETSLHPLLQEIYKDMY
As to the kind of experiment: Displacement of Fluormone-Pan-PPAR Green from human GST-tagged PPARdelta LBD by TR-FRET assay.

In assay [2] the target is Adenosine receptor A1 (Homo sapiens, UniProt P30542). As to the kind of experiment: Displacement of [3H]CCPA from human A1 receptor expressed in CHO cell membranes after 60 mins by gamma counting method. It counts as cell-based.
Assay [3] addresses Adenosine receptor A2a (Homo sapiens, UniProt P29274). As to the kind of experiment: biochemical.

The molecule `O[C@@H]1[C@H](O)CS[C@H]1n1cnc2c(NCc3cccc(Cl)c3)nc(Cl)nc21` returned a Ki in assay [1] of 10.2 nM.

Consider `O[C@@H]1[C@H](O)CS[C@H]1n1cnc2c(NCc3cccc(I)c3)ncnc21`, for which the Ki was 860 nM in assay [2] and 440 nM in assay [3].
